Assay results published in PubChem BioAssay AID602247 (The Scripps Research Institute Molecular Screening Center, 2012).
The list shows a part of the results, in another mix than the full data. Active and inactive are the calls of the source.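 How the source made its calls: active means activation above the run cutoff, the mean activation of all test compounds plus 3 SD (cut at about 40% in these data); inactive means the rest.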

experiment: nonselective calcium activators in parental CHO-K1 cells, primary screen, counter-screen for M1 PAM project, cell-based, Fluo-8 calcium fluorescence, full deck, 1536-well (AID 602247); settings: parental CHO-K1, ATP EC20, Fluo-8 calcium fluorescence; at 3 µM; stronger effect = higher value; 0% at ATP EC20, 100% at ATP max;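 further: peak over basal fluorescence ratio in a 140 s read after ATP addition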

Row | Compound | activation
1 | c1cc(-c2nn[nH]n2)ccc1-c1nn[nH]n1 | inactive: 5.71%
2 | CC1CCN(C(=O)Oc2c(Cl)cc(Cl)c3cccnc23)CC1 | inactive: 10.7%
3 | CC(C)=N/N=C(\N)N[N+](=O)[O-] | inactive: 16.4%
4 | CC(C)c1nc(Nc2ccccc2)n(P(=O)(N(C)C)N(C)C)n1 | inactive: -10.7%
5 | CN(C)C(=O)OCCc1n(C)cc[n+]1C | inactive: 17.7%
6 | O=P1(N(CCCl)CCCl)OCCCS1 (stereo not given) | inactive: 15.7%
7 | O=C(Nc1cc([As](=O)(O)O)ccc1O)c1ccccc1 | inactive: 7.53%
8 | O=[N+]([O-])c1ncn(CCn2ncnc2[N+](=O)[O-])n1 | inactive: 6.13%
9 | CC(C)(C)C(=O)NC(Sc1ccncn1)C(Cl)(Cl)Cl (stereo not given) | inactive: -5.67%
10 | C/C=C1/C[C@@H](C)[C@](O)(CO)C(=O)OCC2=CCN3CC[C@@H](OC1=O)[C@@H]23 | inactive: 2.33%
11 | O=C(O)CNc1ccc([As](=O)(O)O)cc1 | inactive: -22.6%
12 | O=[N+]([O-])c1cccc(NC2=NCC(CBr)S2)c1 (stereo not given) | inactive: 9.24%
13 | COC(=O)C1(C)COP(=O)(Nc2ccccc2)OC1 (stereo not given) | inactive: 9.37%
14 | CN(C)P(=O)(N(C)C)n1c(Nc2ccccc2)nnc1-c1ccccc1 | inactive: 11.2%
15 | O=P(Nc1nc2ccc(Cl)cc2s1)(c1ccccc1)c1ccccc1 | inactive: -9.78%
16 | O=C(O)c1ccccc1[As](=O)(O)O | inactive: 3.66%
17 | CC(=O)Nc1ccc([As](=O)(O)O)cc1 | inactive: -15.2%
18 | CC(=O)O[C@]1(C)C(=O)OC/C2=C/CN(C)CCC(OC(=O)[C@@](O)(C(C)O)C[C@H]1C)C2=O (stereo not given in full) | inactive: 2.3%
19 | CCCC1OP(N)(=O)OCC1CC (stereo not given) | inactive: 6.69%
20 | CCOP(=O)(Nc1ccccc1)OCC | inactive: 5.92%
21 | Cc1cc(SC(NC(=O)c2ccc(F)cc2)C(Cl)(Cl)Cl)ncn1 (stereo not given) | inactive: -8.06%
22 | CN(C(=O)Cc1ccc(Cl)c(Cl)c1)[C@H]1CCCC[C@@H]1N1CCCC1 | inactive: 7.37%

Row | Compound | activation
23 | Cc1ccc(NP(=O)(Oc2ccccc2F)Oc2ccccc2F)nc1 | inactive: 1.27%
24 | Nc1cccc2ccc([As](=O)(O)O)cc12 | inactive: -1.79%
25 | CCN(N=Nc1nonc1N)c1nonc1N | inactive: 21.5%
26 | CN(C(=O)Cc1ccc(Cl)c(Cl)c1)[C@H]1CCCC[C@H]1N1CCCC1 | inactive: 13.5%
27 | Cc1ccc(N/C(=N/P(=O)(N2CCOCC2)N2CCOCC2)N2CCOCC2)cc1 | inactive: -23.1%
28 | NC(=O)c1cc([N+](=O)[O-])cc([N+](=O)[O-])c1N | inactive: 14.4%
29 | Clc1ccc(Cl)c(NC2=NCC(CBr)S2)c1 (stereo not given) | inactive: 14.4%
30 | CN1CCCC(OC(=O)C(c2ccccc2)c2ccccc2)C1 (stereo not given) | inactive: -1.82%
31 | CC(C)[C@H]1C(=O)O[C@@H]2CCN3CC=C(COC(=O)[C@](C)(O)[C@]1(C)O)[C@H]23 | inactive: 6.57%
32 | COc1ccccc1OP(=O)(Nc1ccc(C)cn1)Oc1ccccc1OC | inactive: -16%
33 | Cc1ccc(OP(=O)(Nc2nccs2)Oc2ccc(C)cc2)cc1 | inactive: 23.9%
34 | Oc1ccccc1CNc1ccccn1 | inactive: 17.9%
35 | O=C(NC(Sc1ccncn1)C(Cl)(Cl)Cl)c1ccccc1 (stereo not given) | inactive: 21%
36 | CC(C)CC(=O)NC(Sc1ccc(Cl)cc1)C(Cl)(Cl)Cl (stereo not given) | inactive: 3.69%
37 | Nc1cc(N)c2nonc2c1[N+](=O)[O-] | inactive: 3.33%
38 | O=[N+]([O-])C1C(O)C(O)C([N+](=O)[O-])C(O)C1O (stereo not given) | inactive: 23.1%
39 | O=P1(Nc2nc3ccc(Cl)cc3s2)COc2ccccc2O1 (stereo not given) | inactive: 13.5%
40 | CCOc1ccc(C2=NCC(CBr)S2)cc1 (stereo not given) | inactive: 1.52%
41 | CC(C)(C)C(=O)NC(Sc1ccccc1)C(Cl)(Cl)Cl (stereo not given) | inactive: 0.01%
42 | CCc1cc(O)c([N+](=O)[O-])c(C)c1[N+](=O)[O-] | inactive: 18.9%
43 | CCN(CC)CCOC(=O)C(O)(c1ccccc1)c1ccccc1 | inactive: -1.94%
44 | Cc1ccccc1CN(C)C(=O)COC(=O)C(O)(c1ccccc1)c1ccccc1 | inactive: -14%

Row | Compound | activation
45 | C[C@@H]1C=CCP(=O)(Oc2ccccc2)O1 (stereo not given in full) | inactive: 14.6%
46 | C[C@H]1OP(=O)(Oc2ccccc2)C[C@@H]2O[C@@H]21 (stereo not given in full) | inactive: -9.48%
47 | N#C/C(=C\c1ccc(N(CCBr)CCBr)cc1)C(N)=O | inactive: 19.9%
48 | CC(=O)c1ccc(N2CC2c2ccncc2)cc1 (stereo not given) | inactive: -1%
49 | CC1C(=O)OC2CCN3CC=C(COC(=O)C(C)(O)C1(C)O)C23 (stereo not given) | inactive: -4.13%
50 | COC(=O)C1(C)COP(=O)(NCc2ccccc2)OC1 (stereo not given) | inactive: 7.3%
51 | CC(=O)Nc1ccc([As](=O)(O)O)c(O)c1 | inactive: 19%
52 | CC(=O)Nc1ccc(Oc2c([N+](=O)[O-])cc([N+](=O)[O-])cc2[N+](=O)[O-])cc1 | inactive: 11.1%
53 | c1ccc(-c2nn[nH]n2)c(-c2nn[nH]n2)c1 | inactive: 20.9%
54 | Cc1ccc(NP(=O)(Oc2cccc(C)c2)Oc2cccc(C)c2)nc1 | inactive: 8.47%
55 | C=C1C(=O)OC2CCN3CC=C(COC(=O)C(C)(O)C4(CO4)C1C)C23 (stereo not given) | inactive: 8.19%
56 | O=C(NC1CCS(=O)(=O)C1)NP(=S)(Oc1ccccc1)Oc1ccccc1 (stereo not given) | inactive: -13.9%
57 | CCNC(=S)/N=C(\N)N[N+](=O)[O-] | inactive: 6.42%
58 | CC1C(=O)OC2CCN3CC4OC4(COC(=O)C(C)(O)C1(C)O)C23 (stereo not given) | inactive: 14.8%
59 | O=P1(N(CCCl)CCCl)OCCC2CCCCN21 (stereo not given) | inactive: 7.5%
60 | O=C(OC1CN2CCC1CC2)c1ccccc1 (stereo not given) | inactive: 13.1%
61 | Clc1ccc(N2CCN(Cc3c[nH]c4ncccc34)CC2)cc1 | inactive: 16.3%
62 | CCC(=O)N1C2C3N(C(=O)CC)C1C1N(C(=O)CC)C(C(N1C(=O)CC)N3C(=O)CC)N2C(=O)CC | inactive: 11.9%
63 | COC(=O)c1cc2c(s1)N=C(c1ccccc1)N(C)P2(=O)N1CCOCC1 (stereo not given) | inactive: 8.13%
64 | CC(=O)NC(SC(=S)N(CC(C)C)CC(C)C)C(Cl)(Cl)Cl (stereo not given) | inactive: 2.12%
65 | Cc1ccc(OP(=O)(Nc2ccccn2)Oc2ccc(C)cc2)cc1 | inactive: 17.6%
66 | Cc1ccccc1OP(=O)(Nc1ccccn1)Oc1ccccc1C | inactive: 13%

Row | Compound | activation
67 | CC(NC(=O)COC(=O)C(O)(c1ccccc1)c1ccccc1)c1ccccc1 (stereo not given) | inactive: -11.9%
68 | CN(C)C(=O)Oc1noc2ccccc12 | inactive: 6.18%
69 | O=c1c2cc([N+](=O)[O-])ccc2[nH]c2c([N+](=O)[O-])cc([N+](=O)[O-])cc12 | inactive: 19.1%
70 | CCN(C(=O)COC(=O)C(O)(c1ccccc1)c1ccccc1)c1c(N)n(Cc2ccccc2)c(=O)[nH]c1=O | inactive: -2.15%
71 | O=P(Nc1ccccn1)(c1ccc(Br)cc1)c1ccc(Br)cc1 | inactive: 8.07%
72 | Nc1ccc(CCCCOc2ccccc2)cc1 | inactive: 18.6%
73 | COc1ccc(N)c([N+](=O)[O-])c1[N+](=O)[O-] | inactive: 3.13%
74 | O=P(Nc1nc2ccccc2s1)(c1ccccc1)c1ccccc1 | inactive: -0.72%
75 | C[C@H]1OP(=O)(Oc2ccccc2)[C@H](O)[C@H](O)[C@H]1N=[N+]=[N-] (stereo not given in full) | inactive: -4.17%
76 | O=[As](O)(c1ccccc1)c1ccc(O)cc1 | inactive: -6.11%
77 | CC(=O)NC(SC(=S)N(C)C)C(Cl)(Cl)Cl (stereo not given) | inactive: 10.8%
78 | O=[N+]([O-])c1ncn(CCn2cnc([N+](=O)[O-])n2)n1 | inactive: 8.95%
79 | O=[N+]([O-])c1ccc(O)c(/C=N/Nc2ccc([N+](=O)[O-])cc2[N+](=O)[O-])c1 | inactive: -5.82%
80 | O=C(OC1CN2CCC1CC2)c1cccc(Cl)c1 (stereo not given) | inactive: 16.5%
81 | Nc1ccc([As](=O)(O)c2ccc([N+](=O)[O-])cc2)cc1 | inactive: -9.26%
82 | C(Cc1nn[nH]n1)Cc1nn[nH]n1 | inactive: 15.1%
83 | O=P(Nc1nccs1)(c1ccccc1)c1ccccc1 | inactive: 22.6%
84 | CC(C)C(=O)NC(Sc1ccccc1)C(Cl)(Cl)Cl (stereo not given) | inactive: 15.1%
85 | c1nnnn1CCn1cnnn1 | inactive: 19.6%
